Experimental data reported in patent publication US20250034165A1, “COMPOUND CONTAINING CYCLOALKYL OR HALOALKYL” (CHIA TAI TIANQING PHARMACEUTICAL GROUP CO., LTD., priority 2021, published 2025).

Protein sequences, listed by entry. Tags and fused reporters are not part of them. Lines headed by an entry give the natural chain unless they say otherwise; changes in a name come on top. Chains listed by the source or under a name are the forms on record and can include a tag or linker. Residues count along the entry.
UniProt P00533, 25-1210 T790M/L858R limits assumed: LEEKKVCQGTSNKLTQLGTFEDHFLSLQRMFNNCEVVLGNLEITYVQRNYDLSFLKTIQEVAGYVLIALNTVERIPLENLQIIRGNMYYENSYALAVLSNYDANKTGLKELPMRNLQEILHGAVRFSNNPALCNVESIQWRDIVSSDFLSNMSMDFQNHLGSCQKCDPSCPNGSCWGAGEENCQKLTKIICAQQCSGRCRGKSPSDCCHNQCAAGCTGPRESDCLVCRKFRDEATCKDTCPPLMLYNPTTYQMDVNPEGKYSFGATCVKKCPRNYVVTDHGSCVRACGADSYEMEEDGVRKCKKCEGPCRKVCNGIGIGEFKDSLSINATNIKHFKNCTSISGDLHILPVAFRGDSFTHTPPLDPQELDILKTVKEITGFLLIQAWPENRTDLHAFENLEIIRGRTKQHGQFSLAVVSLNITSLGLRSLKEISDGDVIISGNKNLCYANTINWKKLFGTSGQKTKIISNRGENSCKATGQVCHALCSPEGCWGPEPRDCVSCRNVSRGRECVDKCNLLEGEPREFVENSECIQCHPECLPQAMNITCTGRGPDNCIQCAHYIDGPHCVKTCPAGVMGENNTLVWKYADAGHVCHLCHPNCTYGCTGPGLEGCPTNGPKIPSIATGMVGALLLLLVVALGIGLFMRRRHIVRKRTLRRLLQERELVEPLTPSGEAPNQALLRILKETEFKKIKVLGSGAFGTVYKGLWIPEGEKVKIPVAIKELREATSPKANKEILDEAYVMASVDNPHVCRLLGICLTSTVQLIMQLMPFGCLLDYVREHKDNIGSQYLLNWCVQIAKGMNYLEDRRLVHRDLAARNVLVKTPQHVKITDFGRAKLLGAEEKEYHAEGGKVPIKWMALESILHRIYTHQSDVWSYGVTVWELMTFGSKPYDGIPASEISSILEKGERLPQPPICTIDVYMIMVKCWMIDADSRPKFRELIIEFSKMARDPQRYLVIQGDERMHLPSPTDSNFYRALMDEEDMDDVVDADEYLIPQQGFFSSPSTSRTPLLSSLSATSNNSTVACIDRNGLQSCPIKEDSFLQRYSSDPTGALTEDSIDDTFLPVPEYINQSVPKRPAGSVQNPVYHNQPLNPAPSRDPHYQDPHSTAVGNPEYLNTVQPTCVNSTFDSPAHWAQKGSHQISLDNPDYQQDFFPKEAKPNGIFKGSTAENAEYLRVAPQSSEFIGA
UniProt P00533, 25-1210 T790M/C797S/L858R limits assumed: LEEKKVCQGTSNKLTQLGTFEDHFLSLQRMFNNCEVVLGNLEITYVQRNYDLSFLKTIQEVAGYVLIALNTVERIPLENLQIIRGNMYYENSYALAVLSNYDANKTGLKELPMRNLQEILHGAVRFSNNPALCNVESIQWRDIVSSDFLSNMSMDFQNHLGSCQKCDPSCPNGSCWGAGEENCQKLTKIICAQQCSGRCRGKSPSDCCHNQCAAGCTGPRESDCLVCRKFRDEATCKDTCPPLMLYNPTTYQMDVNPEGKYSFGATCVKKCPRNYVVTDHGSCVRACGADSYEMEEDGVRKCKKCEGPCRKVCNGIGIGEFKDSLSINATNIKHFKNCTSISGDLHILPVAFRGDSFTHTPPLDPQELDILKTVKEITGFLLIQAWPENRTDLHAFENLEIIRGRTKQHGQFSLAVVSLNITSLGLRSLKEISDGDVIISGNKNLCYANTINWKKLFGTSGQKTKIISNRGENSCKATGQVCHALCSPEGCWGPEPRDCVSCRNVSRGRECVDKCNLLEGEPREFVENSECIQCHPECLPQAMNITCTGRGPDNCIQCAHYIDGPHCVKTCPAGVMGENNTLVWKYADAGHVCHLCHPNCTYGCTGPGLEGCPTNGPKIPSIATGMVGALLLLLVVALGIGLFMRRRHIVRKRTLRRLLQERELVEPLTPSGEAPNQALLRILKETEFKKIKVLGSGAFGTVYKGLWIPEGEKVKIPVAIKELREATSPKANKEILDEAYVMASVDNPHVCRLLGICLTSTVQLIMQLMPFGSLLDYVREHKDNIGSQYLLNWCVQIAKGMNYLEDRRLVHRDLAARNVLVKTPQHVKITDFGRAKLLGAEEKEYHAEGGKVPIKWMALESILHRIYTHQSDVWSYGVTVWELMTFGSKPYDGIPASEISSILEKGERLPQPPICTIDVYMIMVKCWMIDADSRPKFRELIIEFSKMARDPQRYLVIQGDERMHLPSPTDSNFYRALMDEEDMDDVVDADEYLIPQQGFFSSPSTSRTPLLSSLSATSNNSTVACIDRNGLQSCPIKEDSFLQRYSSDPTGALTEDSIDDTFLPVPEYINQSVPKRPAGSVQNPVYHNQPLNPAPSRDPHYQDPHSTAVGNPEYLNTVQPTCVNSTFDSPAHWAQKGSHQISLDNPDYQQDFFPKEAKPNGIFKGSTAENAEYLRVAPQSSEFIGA
UniProt P00533, with tags, fused parts or gaps limits assumed, stated change not applied: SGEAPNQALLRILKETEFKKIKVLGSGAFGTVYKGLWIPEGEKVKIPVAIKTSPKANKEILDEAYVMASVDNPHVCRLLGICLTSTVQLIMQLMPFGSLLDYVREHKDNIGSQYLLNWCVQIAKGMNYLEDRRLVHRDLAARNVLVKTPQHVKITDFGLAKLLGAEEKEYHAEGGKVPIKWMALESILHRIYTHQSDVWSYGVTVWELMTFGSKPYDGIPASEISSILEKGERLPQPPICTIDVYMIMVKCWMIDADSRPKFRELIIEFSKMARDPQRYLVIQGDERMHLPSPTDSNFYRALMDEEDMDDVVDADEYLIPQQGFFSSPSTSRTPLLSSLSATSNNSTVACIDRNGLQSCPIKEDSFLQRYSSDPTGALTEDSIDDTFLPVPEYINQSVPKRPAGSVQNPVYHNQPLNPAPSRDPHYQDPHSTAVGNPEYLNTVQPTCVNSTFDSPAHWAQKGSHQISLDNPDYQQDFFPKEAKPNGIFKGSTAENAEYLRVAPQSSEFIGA

Key:
[1] = target: EGFR (d746-750/T790M/C797S) (Homo sapiens (Human), UniProt P00533, C797S/DEL746-750/T790M); assay: Inhibitory activity for EGFR (d746-750/T790M/C797S) kinase; details: read-out: EGFR(d19/T790M/C797S) (IC50); ATP 5 μM
Description: 1.5 Screening for Inhibitory Activity for EGFR (d746-750/T790M/C797S) Kinase
(§1) A 50 ng/μL EGFR (d746-750/T790M/C797S, BPS) stock solution was diluted with a kinase buffer (50 mM HEPES, 10 mM MgCl2, 2 mM DTT, 1 mM EGTA, 0.01% Tween 20), and 6 μL of 1.67× working solution at 0.05 ng/μL (final concentration: 0.03 ng/μL) was added to each well. Different compounds dissolved in DMSO were added to the wells using a nanoliter pipettor, resulting in the final concentrations of the compounds of 10 nM to 0.0024 nM (4-fold gradient for 7 concentrations in total), and blank control wells (without enzyme) and negative control wells (with enzyme, plus vehicle DMSO) were set, 2 replicate wells for each concentration. After enzyme was reacted with the compound or vehicle for 30 min, 5×ATP at 25 μM (final concentration: 5 μM, Sigma) prepared with a kinase buffer was mixed with 5× substrate at 0.5 μM (final concentration: 0.1 μM, ULight-poly GT, PerkinElmer) at a ratio of 1:1 (v:v), and the mixture was added to each well at 4 μL/well. After being sealed with a film, the plate was incubated at room temperature for 2 h, and then 5 μL of 4×EDTA at 40 mM (final concentration: 10 mM) was added to each well. After the plate was incubated for 5 min at room temperature, 5 μL of 4× detection reagent at 8 nM (final concentration: 2 nM, Eu-anti-phospho-tyrosine antibody, PerkinElmer) was added to each well. After being incubated at room temperature for 1 h, the plate was read using a PerkinElmer Envision multi-mode microplate reader (excitation: 320 nm, emission: 665 nm), and IC50 was calculated by four-parameter fitting.

[2] = tested on: PC-9 EGFR-Del19-T790M-C797S cells; assay: Inhibition of proliferation of PC-9-EGFR (Del19 T790M C797S) cells, CCK-8; details: read-out: PC-9-EGFR (Del19 T790M C797S) cell inhibitory activity IC50, 72 h
Description: PC-9 EGFR-Del19-T790M-C797S cells in the logarithmic growth phase and good conditions were taken, washed with PBS, digested with pancreatin, terminated with a complete medium, collected and added to a centrifuge tube, adjusted to a cell density of 2×10^4 cells/mL, and seeded in a 96-well plate (100 μL/well). Meanwhile, compounds were loaded using a nanoliter pipettor resulting in the final concentrations of the compounds of 1000 nM-0.06 nM, and a control was set, replicate wells for each concentration. After 72 h of incubation in the cell incubator, the assay reagent CCK-8 (manufacturer: Dojindo Laboratories, Beijing; 10 μL/well) was added. After 2 h of incubation in the cell incubator, absorbance was measured at 450 nm on a PerkinElmer Envision microplate reader, and the inhibition rate was calculated.
(§2) Inhibition rate (%)=(mean value of negative control group-mean value of experimental group)/(mean value of negative control group−mean value of blank group)×100%.
(§3) A dose-response curve was fitted by four-parameter analysis, with the logarithm of compound concentration serving as abscissa and inhibition rate serving as ordinate, such that IC50 was calculated.

[3] = tested on: BAF3-EGFR (L858R/T790M/C797S) cells; assay: Inhibition of proliferation of BAF3-EGFR (L858R/T790M/C797S) cells, CCK-8; details: read-out: BAF3(EGFR T790M L858R C797S) cell inhibitory activity IC50, 72 h
Description: A flask of EGFR (L858R/T790M/C797S) cells in the logarithmic growth phase and good conditions was taken, and the cells were collected and added to a centrifuge tube. 20 μL of cells were taken and counted, and the required number of cells (mL) was pipetted and centrifuged at 1200 rpm for 3 min. The supernatant was discarded, and an appropriate amount of plating medium (RPMI medium+10% FBS) was added to adjust the cell density to 1.5×10^5 cells/mL. The cells were seeded on a 96-well plate at 100 μL/well using a multi-channel pipette and cultured in a cell incubator at 37° C., 5% CO2 with saturated humidity. After overnight incubation, compounds were loaded using a nanoliter pipettor, 2 duplicate wells were set for each concentration, and cells without compound added were used as negative controls. After 72 h, CCK-8 was added at 10 μL/well for incubation for 2 h, then absorbance was measured at 450 nm with an Envision plate reader, and inhibition rate was calculated.
as §2, §3

EGFR (L858R/T790M/C797S) = EGFR (L858R/T790M/C797S) (Homo sapiens (Human), UniProt P00533, C797S/L858R/T790M); assay: Inhibitory activity for EGFR (L858R/T790M/C797S) kinase; details: read-out: EGFR(L858R/T790M/C797S) (IC50); ATP 5 μM
Description: as §1, with “(L858R/T790M/C797S,” for “(d746-750/T790M/C797S,”, “0.00167” for “0.05”, “0.001” for “0.03”, “to” for “to the”, “gradient,” for “gradient for”

EGFR (L858R/T790M) = EGFR (L858R/T790M) (Homo sapiens (Human), UniProt P00533, L858R/T790M); assay: Inhibitory activity for EGFR (L858R/T790M) kinase; details: read-out: EGFR(L858R/T790M) (IC50); ATP 5 μM
Description: as §1, with “(L858R/T790M, Carna)” for “(d746-750/T790M/C797S, BPS)”, “0.004175” for “0.05”, “0.0025” for “0.03”, “to” for “to the”, “gradient,” for “gradient for”

[2H]C([2H])([2H])N(C1CCC(Nc2ccc3c(c2)NC2=NC(=O)c4cc(C)nc(c4)-c4cnn(C)c4OCCC[C@@H](C4CC4)CN23)CC1)C([2H])([2H])[2H] (single isomer, unassigned)
IC50 [1]: 0.076 nM | IC50 [2]: < 50 nM | IC50 [3]: < 5 nM | IC50 (EGFR (L858R/T790M/C797S)): 0.12 nM | IC50 (EGFR (L858R/T790M)): 0.081 nM
